Consider one compound from patent US8119646B2, “Fungicide hydroximoyl-tetrazole derivatives” (Bayer CropScience AG, priority 2006, dated 2012).

The series can be described thus: logP determination by HPLC on a reversed-phase column (C 18), EEC Directive 79/831 Annex V.A8. The settings on record: HPLC reversed-phase C18, 40° C., 0.1% aqueous formic acid and acetonitrile, gradient 10% to 90% acetonitrile. Here is the method: Temperature: 40° C.; Mobile phases: 0.1% aqueous formic acid and acetonitrile; linear gradient from 10% acetonitrile to 90% acetonitrile.

The LogP is a log measure of how a compound divides between an organic and an aqueous phase. The low end stands for lower lipophilicity, the high end for higher lipophilicity. Regarding `Cc1nnnn1C(=NOCc1cccc(NC(=O)C2CC2)n1)C1CCCCC1` [Compound 31], the LogP is 3.33.
